AC50 and outcome data for four compounds are collected here from PubChem BioAssay (EPA / NIEHS).

Protein sequences, listed by entry. Tags and fused reporters are not part of them. Lines headed by an entry give the natural chain unless they say otherwise; changes in a name come on top.
UniProt P24462, whole entry, looked up: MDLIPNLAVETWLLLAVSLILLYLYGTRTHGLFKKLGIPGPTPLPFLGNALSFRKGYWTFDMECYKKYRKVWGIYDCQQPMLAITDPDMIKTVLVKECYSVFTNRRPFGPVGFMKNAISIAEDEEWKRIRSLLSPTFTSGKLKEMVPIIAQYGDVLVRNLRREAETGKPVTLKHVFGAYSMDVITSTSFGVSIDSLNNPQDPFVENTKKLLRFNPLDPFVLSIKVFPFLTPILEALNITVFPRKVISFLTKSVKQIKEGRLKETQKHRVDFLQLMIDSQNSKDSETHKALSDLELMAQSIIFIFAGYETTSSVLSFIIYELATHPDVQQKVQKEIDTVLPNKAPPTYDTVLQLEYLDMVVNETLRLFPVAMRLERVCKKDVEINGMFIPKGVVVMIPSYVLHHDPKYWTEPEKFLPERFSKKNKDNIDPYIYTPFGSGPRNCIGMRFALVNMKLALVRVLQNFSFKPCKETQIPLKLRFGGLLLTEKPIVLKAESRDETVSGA
UniProt Q5TCH4: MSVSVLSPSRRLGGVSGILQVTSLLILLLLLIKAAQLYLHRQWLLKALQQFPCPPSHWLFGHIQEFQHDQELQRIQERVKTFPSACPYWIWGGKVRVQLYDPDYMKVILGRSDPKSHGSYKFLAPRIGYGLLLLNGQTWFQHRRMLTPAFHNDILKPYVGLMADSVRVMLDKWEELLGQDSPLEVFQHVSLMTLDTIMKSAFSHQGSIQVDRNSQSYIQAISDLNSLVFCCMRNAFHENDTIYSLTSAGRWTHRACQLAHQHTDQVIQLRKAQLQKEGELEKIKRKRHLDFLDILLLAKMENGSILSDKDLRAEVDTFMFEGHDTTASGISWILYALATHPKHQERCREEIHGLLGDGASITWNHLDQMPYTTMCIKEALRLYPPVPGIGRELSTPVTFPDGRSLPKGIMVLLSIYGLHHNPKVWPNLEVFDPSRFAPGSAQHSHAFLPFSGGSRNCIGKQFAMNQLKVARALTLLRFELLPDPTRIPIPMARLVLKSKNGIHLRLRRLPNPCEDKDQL
UniProt P22680: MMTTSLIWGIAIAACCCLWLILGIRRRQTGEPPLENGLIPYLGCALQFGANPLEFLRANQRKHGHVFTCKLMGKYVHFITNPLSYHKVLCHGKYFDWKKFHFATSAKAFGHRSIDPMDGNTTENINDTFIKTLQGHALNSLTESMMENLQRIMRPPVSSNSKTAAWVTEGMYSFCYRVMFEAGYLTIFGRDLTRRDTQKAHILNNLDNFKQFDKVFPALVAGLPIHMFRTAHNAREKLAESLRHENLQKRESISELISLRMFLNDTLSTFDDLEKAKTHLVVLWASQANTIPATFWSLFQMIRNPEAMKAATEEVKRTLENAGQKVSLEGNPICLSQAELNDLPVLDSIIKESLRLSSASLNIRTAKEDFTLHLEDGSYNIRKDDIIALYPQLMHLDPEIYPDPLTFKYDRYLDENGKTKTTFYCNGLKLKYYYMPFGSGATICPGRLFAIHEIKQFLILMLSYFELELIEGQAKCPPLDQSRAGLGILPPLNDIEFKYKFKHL
UniProt Q16665, whole entry, looked up: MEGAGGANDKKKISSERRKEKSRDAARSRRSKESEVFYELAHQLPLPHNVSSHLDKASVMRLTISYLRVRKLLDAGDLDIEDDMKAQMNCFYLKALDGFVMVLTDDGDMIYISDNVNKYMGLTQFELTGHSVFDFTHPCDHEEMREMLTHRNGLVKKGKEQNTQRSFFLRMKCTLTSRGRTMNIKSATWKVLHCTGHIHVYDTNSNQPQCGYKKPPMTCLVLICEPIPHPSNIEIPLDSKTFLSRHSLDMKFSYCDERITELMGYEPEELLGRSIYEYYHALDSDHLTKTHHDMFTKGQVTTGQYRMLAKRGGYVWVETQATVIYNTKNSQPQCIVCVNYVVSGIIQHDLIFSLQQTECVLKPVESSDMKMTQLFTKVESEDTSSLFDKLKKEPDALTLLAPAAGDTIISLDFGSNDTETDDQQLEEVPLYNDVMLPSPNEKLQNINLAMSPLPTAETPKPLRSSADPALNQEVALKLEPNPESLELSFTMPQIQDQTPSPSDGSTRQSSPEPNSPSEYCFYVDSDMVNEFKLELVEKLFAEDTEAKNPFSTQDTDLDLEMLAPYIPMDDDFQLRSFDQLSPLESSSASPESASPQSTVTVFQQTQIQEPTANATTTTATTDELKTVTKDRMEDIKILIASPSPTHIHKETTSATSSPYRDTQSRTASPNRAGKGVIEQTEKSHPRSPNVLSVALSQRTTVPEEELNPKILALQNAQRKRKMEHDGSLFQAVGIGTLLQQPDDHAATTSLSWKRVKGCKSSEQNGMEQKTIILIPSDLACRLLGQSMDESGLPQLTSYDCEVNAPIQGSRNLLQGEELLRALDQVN

What all share (conditions): actives raise or lower the signal; mRNA level, 48 h
Read-out in experiment [1]: Cytochrome P450 3A7 (Homo sapiens) (UniProt P24462)
Briefly: LTEA_HepaRG_CYP3A7: Life Technologies and Expression Analysis (LTEA) Assay for CYP3A7 using HepaRG (AID 2283492). The method in brief:
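CYP3A7 transcript measured by qRT-PCR (ACTB, GAPDH, POLR2A normalization) after 48 h chemical exposure of HepaRG cells in duplicate. Eight half-log concentrations, maximum 100 uM, 0.5% DMSO vehicle; bidirectional curve fitting against DMSO baseline.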

Read-out in experiment [2]: CYP3A5 (gene 1577)
Nature of the experiment: LTEA_HepaRG_CYP3A5: Life Technologies and Expression Analysis (LTEA) Assay for CYP3A5 using HepaRG (AID 2283493). In a few lines:
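HepaRG plated 48 h, switched to serum-free induction medium, chemicals added 48 h (max 100 uM, half-log, 0.5% DMSO). RNA isolated; CYP3A5 by TaqMan qRT-PCR. Gain/loss vs DMSO.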

Read-out in experiment [3]: Fatty Acid-Binding Protein 1 (FABP1), FABP1 (gene 2168)
Briefly: LTEA_HepaRG_FABP1: Life Technologies and Expression Analysis (LTEA) Assay for Fatty Acid-Binding Protein 1 (FABP1) using HepaRG (AID 2283494). In a few lines: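 Differentiated human HepaRG cells were exposed in duplicate for 48 h in serum-free induction medium to 8-point half-log concentration series topping at 100 uM in 0.5% DMSO. FABP1 mRNA measured by TaqMan qRT-PCR, normalized to ACTB/GAPDH/POLR2A; bidirectional fit versus DMSO.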

Read-out in experiment [4]: Cytochrome P450 4A22 (Homo sapiens) (UniProt Q5TCH4)
Nature of the experiment: LTEA_HepaRG_CYP4A22: Life Technologies and Expression Analysis (LTEA) Assay for Cytochrome P450 4A22 (CYP4A22) using HepaRG (AID 2283495). The method in brief: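 Gene expression measured by qRT-PCR against three housekeeping genes (ACTB, GAPDH, POLR2A), with gain or loss fitted relative to 0.5% DMSO vehicle. HepaRG cultures received 48 h chemical treatment, top concentration 100 uM, half-log steps, duplicate wells.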

Read-out in experiment [5]: Cytochrome P450 7A1 (Homo sapiens) (UniProt P22680)
Nature of the experiment: LTEA_HepaRG_CYP7A1: Life Technologies and Expression Analysis (LTEA) Assay for Cytochrome P450 7A1 (CYP7A1) using HepaRG (AID 2283496). The method in brief: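 HepaRG cells plated 48 h, then switched to serum-free induction medium and exposed in duplicate for 48 h to 8-point half-log series from 100 uM in 0.5% DMSO. CYP7A1 mRNA by qRT-PCR (TaqMan), normalized to ACTB/GAPDH/POLR2A; bidirectional fit versus DMSO.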

Read-out in experiment [6]: Glutathione S-Transferase (GSTA2), GSTA2 (gene 2939)
Briefly: LTEA_HepaRG_GSTA2: Life Technologies and Expression Analysis (LTEA) Assay for Glutathione S-Transferase (GSTA2) using HepaRG (AID 2283497). The method in brief: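 Human HepaRG cells, plated 48 h, then exposed in serum-free induction medium for 48 h to eight half-log concentrations up to 100 uM in 0.5% DMSO, duplicate. GSTA2 mRNA by qRT-PCR, normalized to ACTB/GAPDH/POLR2A; bidirectional fit versus DMSO.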

Read-out in experiment [7]: Glutamate-cysteine ligase catalytic (GCLC), GCLC (gene 2729)
Briefly: LTEA_HepaRG_GCLC: Life Technologies and Expression Analysis (LTEA) Assay for Glutamate-cysteine ligase catalytic (GCLC) using HepaRG (AID 2283498). The method in brief: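 Differentiated human HepaRG cells, plated 48 h then switched to serum-free induction medium, were exposed in duplicate for 48 h to 8 half-log concentrations topping at 100 uM in 0.5% DMSO. GCLC mRNA was quantified by qRT-PCR against ACTB, GAPDH and POLR2A.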

Read-out in experiment [8]: growth arrest and DNA damage 45 (GADD45G), GADD45G (gene 10912)
Nature of the experiment: LTEA_HepaRG_GADD45G: Life Technologies and Expression Analysis (LTEA) Assay for growth arrest and DNA damage 45 (GADD45G) using HepaRG (AID 2283499). The method in brief:
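GADD45G transcript level by qRT-PCR (housekeeping-normalized: ACTB, GAPDH, POLR2A) after 48 h chemical treatment of a single HepaRG lot in serum-free induction medium; eight-point half-log series up to 100 uM in 0.5% DMSO, duplicates, up- or down-regulation scored.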

Read-out in experiment [9]: Glutamate-cysteine ligase regulatory (GCLM), GCLM (gene 2730)
Nature of the experiment: LTEA_HepaRG_GCLM: Life Technologies and Expression Analysis (LTEA) Assay for Glutamate-cysteine ligase regulatory (GCLM) using HepaRG (AID 2283500). In a few lines: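 Cells were plated, cultured 48 h, switched to serum-free induction medium, then dosed in duplicate for 48 h at eight half-log concentrations up to 100 uM. RNA was then profiled by qRT-PCR; gain or loss versus DMSO was fitted.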

Read-out in experiment [10]: Glutathione S-transferase M3 (GSTM3), GSTM3 (gene 2947)
Briefly: LTEA_HepaRG_GSTM3: Life Technologies and Expression Analysis (LTEA) Assay for Glutathione S-transferase M3 (GSTM3) using HepaRG (AID 2283501). In a few lines: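 GSTM3 transcript levels came from Fluidigm TaqMan qRT-PCR normalized to three housekeeping genes, fitted in both directions against DMSO. HepaRG cultures received chemicals for 48 h in serum-free induction medium (0.5% DMSO), 8 half-log concentrations up to 100 uM, duplicate.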

Read-out in experiment [11]: Heat shock 70 kDa protein 1 (HSPA1A), gene 3303
Briefly: LTEA_HepaRG_HSPA1A: Life Technologies and Expression Analysis (LTEA) Assay for Heat shock 70 kDa protein 1 (HSPA1A) using HepaRG (AID 2283502). The method in brief: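 Readout is HSPA1A transcript level by microfluidic qRT-PCR, normalized to three housekeeping genes and analysed for gain or loss of signal relative to 0.5% DMSO. Human HepaRG cultures received test chemicals for 48 h at up to 100 uM.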

Read-out in experiment [12]: Hypoxia-inducible factor 1-alpha (Homo sapiens) (UniProt Q16665)
Briefly: LTEA_HepaRG_HIF1A: Life Technologies and Expression Analysis (LTEA) Assay for Hypoxia-inducible factor 1 (HIF1A) Trancription factor using HepaRG (AID 2283503). The method in brief: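 Differentiated HepaRG cells in serum-free induction medium exposed 48 h, in duplicate, to 8-point half-log series from 100 uM in 0.5% DMSO. HIF1A mRNA measured by TaqMan qRT-PCR, normalized to ACTB/GAPDH/POLR2A, fitted bidirectionally versus DMSO.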

Read-out in experiment [13]: 3-Hydroxy-3-Methylglutaryl-CoA Synthase 2 (HMGCS2), HMGCS2 (gene 3158)
Briefly: LTEA_HepaRG_HMGCS2: Life Technologies and Expression Analysis (LTEA) Assay for 3-Hydroxy-3-Methylglutaryl-CoA Synthase 2 (HMGCS2) using HepaRG (AID 2283504). In a few lines:
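Readout is HMGCS2 transcript by qRT-PCR, housekeeping-normalised (ACTB/GAPDH/POLR2A) and fitted bidirectionally against 0.5% DMSO. Differentiated HepaRG cells received chemicals 48 h, duplicate wells, eight half-log concentrations topping at 100 uM.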

Read-out in experiment [14]: HGF (gene 3082)
Nature of the experiment: LTEA_HepaRG_HGF: Life Technologies and Expression Analysis (LTEA) Assay for Hepatocyte Growth Facto (HGF) using HepaRG (AID 2283505). In a few lines: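 HGF transcript was quantified by TaqMan qRT-PCR against three housekeeping genes after 48 h treatment of HepaRG cells. Exposure ran in duplicate over eight half-log steps topping at 100 uM in 0.5% DMSO vehicle.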

Read-out in experiment [15]: Insulin Like Growth Factor 1 (IGF1), IGF1 (gene 3479)
Nature of the experiment: LTEA_HepaRG_IGF1: Life Technologies and Expression Analysis (LTEA) Assay for Insulin Like Growth Factor 1 (IGF1) using HepaRG (AID 2283506). In a few lines:
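HepaRG, plated 48 h, then switched to serum-free induction media; test chemical 8-pt half-log from 100 uM (0.5% DMSO), duplicate, 48 h. Lysis in RLT, TaqMan qRT-PCR, norm. ACTB/GAPDH/POLR2A. Bidirectional fit vs DMSO.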

Read-out in experiment [16]: Intercellular Adhesion Molecule 1 (ICAM1), ICAM1 (gene 3383)
Nature of the experiment: LTEA_HepaRG_ICAM1: Life Technologies and Expression Analysis (LTEA) Assay for Intercellular Adhesion Molecule 1 (ICAM1) using HepaRG (AID 2283507). The method in brief:
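ICAM1 transcript levels measured by qRT-PCR, normalized to three housekeeping genes (ACTB, GAPDH, POLR2A), after 48 h chemical exposure of HepaRG cells. Duplicate eight-point half-log series from 100 uM in 0.5% DMSO; gain or loss fitted against vehicle.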

Read-out in experiment [17]: Insulin-like growth factor-binding protein 1 (IGFBP1), IGFBP1 (gene 3484)
Nature of the experiment: LTEA_HepaRG_IGFBP1: Life Technologies and Expression Analysis (LTEA) Assay for Insulin-like growth factor-binding protein 1 (IGFBP1) using HepaRG (AID 2283508). In a few lines:
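Read-out is qRT-PCR transcript level normalized to three housekeeping genes, fitted in both directions against 0.5% DMSO. Differentiated HepaRG cells received eight half-log concentrations (top 100 uM) in duplicate for 48 h in serum-free induction medium.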

Read-out in experiment [18]: Interleukin 6 (IL6), IL6 (gene 3569)
Briefly: LTEA_HepaRG_IL6: Life Technologies and Expression Analysis (LTEA) Assay for Interleukin 6 (IL6) using HepaRG (AID 2283509). In a few lines:
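Differentiated human HepaRG cells, plated 48 h then switched to serum-free induction medium, were exposed in duplicate for 48 h to eight half-log concentrations up to 100 uM in 0.5% DMSO. IL6 mRNA measured by qRT-PCR, normalized to ACTB/GAPDH/POLR2A.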

Read-out in experiment [19]: Interleukin 6 Receptor (IL6R), IL6R (gene 3570)
Nature of the experiment: LTEA_HepaRG_IL6R: Life Technologies and Expression Analysis (LTEA) Assay for Interleukin 6 Receptor (IL6R) using HepaRG (AID 2283510). The method in brief: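 Readout is IL6R transcript level by TaqMan qRT-PCR, normalized to three housekeeping genes and fitted bidirectionally against 0.5% DMSO controls. Human HepaRG cells received chemicals for 48 h in serum-free induction medium, highest concentration 100 uM.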

Read-out in experiment [20]: Potassium channel subfamily K member 1 (KCNK1), KCNK1 (gene 3775)
Nature of the experiment: LTEA_HepaRG_KCNK1: Life Technologies and Expression Analysis (LTEA) Assay for Potassium channel subfamily K member 1 (KCNK1) using HepaRG (AID 2283511). In a few lines: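 Differentiated human HepaRG cells in serum-free induction medium were exposed in duplicate for 48 h to 8 half-log concentrations up to 100 uM in 0.5% DMSO. KCNK1 mRNA was measured by TaqMan qRT-PCR, normalized to ACTB, GAPDH and POLR2A, and fitted bidirectionally versus DMSO.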

The list shows a part of the results, in another mix than the full data. Activity calls are given as the source filed them. The calls were made as follows: active = hit-call score of the fitted dose curve at least 0.9, where 1 is the maximum; inactive = score below 0.9.

For `CN(C(=O)Cc1cccc2occc12)[C@H]1CC[C@@]2(CCCO2)C[C@@H]1N1CCCC1`, the AC50 (commonly the concentration giving half of the maximal activity seen) in experiment [1] is active: 39.8 µM. Also, the compound was called inactive in experiment [2], in [3], in [4], in experiment [5], in experiment [6] and in experiment [7]. Further, the result in experiment [8], in experiment [9], in experiment [10], in experiment [11], in experiment [12] and in [13] was inactive. The outcome in experiment [14], in experiment [15], in experiment [16], in [17], in experiment [18] and in experiment [19] was inactive. Besides, the result in experiment [20] was inactive.

With `O=C1C2CC=CCC2C(=O)N1SC(Cl)(Cl)C(Cl)Cl` (stereo unspecified), the result in experiment [1], in experiment [2], in [6], in experiment [7], in experiment [10] and in experiment [11] was inactive. For the same compound, the result in [12], in experiment [13], in experiment [14], in experiment [16], in experiment [17] and in [18] was inactive. Further, the result in experiment [19] and in [20] was inactive. Moreover, the AC50 was active: 26.1 µM in [4], active: 50 µM in [8], active: 0.139 µM in [9] and active: 29.9 µM in experiment [15].

As for `Cc1cc([N+](=O)[O-])cc([N+](=O)[O-])c1O`, the AC50 is active: 12.3 µM in experiment [1]; active: 1.83 µM in experiment [2]; active: 7.02 µM in experiment [3]; active: 11.1 µM in [4]; active: 8.23 µM in [5]; active: 7.7 µM in experiment [6]. The AC50 is active: 89.6 µM in experiment [9]; active: 4.38 µM in [10]; active: 12.1 µM in experiment [11]; active: 10.5 µM in experiment [12]; active: 10.2 µM in experiment [13]; active: 13 µM in experiment [14]. For the same compound, the AC50 in experiment [16] is active: 30.4 µM. For the same compound, the outcome in experiment [7] and in experiment [20] was inactive.

Take `CC(C)OP(=S)(OC(C)C)SCCNS(=O)(=O)c1ccccc1`: the AC50 in [1] is active: 79.8 µM; in experiment [2] it was active: 94.7 µM; in [3], active: 74.6 µM; in experiment [4], active: 15.8 µM; in experiment [5], active: 76.4 µM; in [11] it was active: 67.5 µM. The AC50 is active: 24.2 µM in experiment [15]; active: 94 µM in experiment [16]; active: 80.9 µM in experiment [17]; active: 94 µM in experiment [18]; active: 50 µM in [20]. The outcome in [7], in experiment [8], in experiment [9], in experiment [10], in [12] and in experiment [14] was inactive. In [19], the compound was classed as inactive.
